System: WT1-3LL cells
Assay: Anti-tumor effects in mice transplanted subcutaneously with WT1-3LL cells
Assay type: in vivo, mouse
Experimental: 3LL cells, a lung cancer cell line derived from a C57/BL6 mouse, were transfected in the usual manner with a cDNA for mouse WT1, and WT1-3LL cells thereby obtained were used.
4) Transplantation of Tumor Cells and Schedule for Vaccination Into mice, 5×10^4 WT1-3LL cells were injected subcutaneously, and vaccination was started on the next day. Into flanks of the mice, 100 μg of Krestin was injected intradermally, and after 24 hours, 0.1 ml of a 2 mg/ml WT1 peptide (SEQ ID NO: 2) solution was injected intradermally at the same site. Taking these administrations as one course, three courses of vaccination were conducted in total, at intervals of one week. 2. Results

Arg Met Phe Pro Asn Ala Pro Tyr Leu (RMFPNAPYL) [WT1 peptide, 9-mer cancer antigen peptide derived from WT1]
engraftment of tumor cells observed (Day 18, 5×10^4 WT1-3LL cells s.c.): in all cases
average tumor diameter compared with the group received Krestin and the WT1 peptide (Day 18 after tumor cell transplantation): greater

Reference: US8735357B2, “Method of inducing antigen-specific T cells” (International Institute of Cancer Immunology, Inc., priority 2001, dated 2014)
